Data taken from patent US4789683A, “Benzamido-derivatives” (priority 1981, dated 1988).

System: DA receptors in the brain
Assay: Block of apomorphine-induced hyperactivity in the rat
Assay type: in vivo, Male Sprague-Dawley rats
Settings: p.o.

`CCN1CCCC1CNC(=O)c1cc(S(N)(=O)=O)ccc1OC` (stereo not shown) [Sulpiride, reference compound] was tested. Which “potency to block apomorphine, ED50 Hyperactivity” value did it give?
The value was greater than 586 µmol/kg.
